Source: PubChem (National Center for Advancing Translational Sciences (NCATS))
TDP1 cell noCPT = qHTS for Inhibitors of human tyrosyl-DNA phosphodiesterase 1 (TDP1): qHTS in cells in absence of CPT. DT40 Tdp1-/- hTDP1 cells, no CPT, ATP luminescence, 48 h. Potency, µM (top dose mostly 46.2 µM), actives largely listed as inhibitors. 15% of 420,000 active; further: nearly all actives have a fitted effect of over 55% in size
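Camptothecin absent (DMSO only). Human TDP1-complemented DT40 knockout cells, 400 cells/well, 37 °C for minimum 48 hr; ATP measured via CellTiter-Glo, 30 min dark incubation, luminescence.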
DT40 TDP1 CPT = DT40-hTDP1 cell growth loss with CPT; Potency, µM (top dose mostly 46.2 µM), hits mostly inhibitors; 12% of 420,000 active; chicken DT40 Tdp1-/-;hTDP1 cells + 20 nM CPT, ATP luminescence, 48 h; further: nearly all actives have a fitted effect of over 55% in size
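Chicken DT40 Tdp1-/- cells complemented with human TDP1, 400 cells/well, exposed to compounds plus 20 nM camptothecin for at least 48 h at 37 C; viability read as ATP content by CellTiter-Glo luminescence.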
TDP1 inh = inhibitors of human tyrosyl-DNA phosphodiesterase TDP1; AID 485290; recombinant TDP1, AlphaScreen DNA substrate cleavage; 0.28% of 350,000 active; Q9NUW8; Potency, µM (top dose mostly 130 µM), actives largely listed as inhibitors; further: nearly all actives have a fitted effect of over 40% in size
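Steps: enzyme plus compound, 15 min RT; add biotin/phosphotyrosine-FITC oligonucleotide (15 nM final), react 5 min; add donor/acceptor beads (10 ug/ml final), 10 min; read AlphaScreen. Tdp1 at 1 nM final.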
uPA surface inh = cell surface uPA generation inhibition; 0.31% of 330,000 active; cell surface uPA generation assay, qHTS; AID 540303; Potency, µM (doses to about 38.3 µM), usual class: inhibitors; active means well fitted inhibition curve with a large enough effect; inconclusive means small, poorly fitted or top-dose-only effect; inactive means no such curve, though single readings can be large or run the other way; tested in mouse RAW 264.7 cells; further: nearly all actives have a fitted effect of over 55% in size
miR-21 reporter = miR-21 reporter, rising signal | Potency, µM (highest dose often 38.3 µM) | 340,000 tested, under 10 active | HeLa miR-21 FLuc reporter, luciferase, 48 h; active = well fitted rising curve with a large enough effect; inconclusive = small, poorly fitted or top-dose-only effect; inactive = no such curve, though single readings can be large or run the other way;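 note: miR-21 action dims this reporter so a rising signal means less miR-21 action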
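Compounds were titrated across several concentrations (up to approximately 40 uM) and incubated 48 hours with HeLa miR-21-FLuc reporter cells (miR-21 target sequence downstream of FLuc, endogenous miR-21). Readout was firefly luciferase luminescence after lytic detection reagent.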
Large screens that a line does not name were inactive. The list is not random: actives were taken first. Their share in the collection is about 16%. Unless noted, the call rests on the fitted dose curve; in most records, active means well fitted curve in the direction sought with a large enough effect; inconclusive means small, poorly fitted or top-dose-only effect, or another doubt; inactive means no such curve, though single readings can be large; an effect the other way counts as inactive or inconclusive.

CN1C(=O)/C(=C/c2ccccc2Cl)Sc2ccc(C(=O)N3CCCC3)cc21	TDP1 cell noCPT 25.9µM, DT40 TDP1 CPT inconclusive
CN1C(=O)/C(=C\c2ccccc2F)Sc2ccc(C(=O)NC3CCN(Cc4ccccc4)CC3)cc21	TDP1 cell noCPT 23.1µM, DT40 TDP1 CPT 18.4µM
CCOc1ccc(/C=C2/Sc3ccc(C(=O)N4CCOCC4)cc3N(C)C2=O)cc1OC	TDP1 cell noCPT 16.4µM, DT40 TDP1 CPT inconclusive
N#Cc1ccccc1OCC(=O)N1CCN(c2ccccc2)CC1	none (no result: uPA surface inh)
COc1ccc(CCN(C)C(=O)c2cnn(-c3nccc(-c4ccc(C)o4)n3)c2C)cc1OC	none (no result: TDP1 inh, uPA surface inh, miR-21 reporter)
Cc1oc(-c2cccc3ccccc23)nc1CN1CCN(c2ncnc3ccccc23)CC1	TDP1 cell noCPT 11.6µM, DT40 TDP1 CPT 16.4µM
C#CCOCCOCCOCCNc1nc(N2CCN(C(=O)[C@H](CCCCN)n3cc(CN)nn3)CC2)nc(N2CCN(C(=O)[C@H](CCCN=C(N)N)n3cc(C(N)[C@H](C)CC)nn3)CC2)n1 (some centres undefined)	none (no result: miR-21 reporter)
NC(=S)NNC(=O)/C(=C/c1ccc(Br)cc1)NC(=O)c1ccccc1	none
O=C(c1ccc(N2CCN(C3CC(=O)N(Cc4cccs4)C3=O)CC2)cc1)c1cccnc1 (centres undefined)	TDP1 cell noCPT inconclusive, DT40 TDP1 CPT 16.4µM
NC(=O)C1(N2CCCCC2)CCN(C2CC(=O)N(Cc3cccs3)C2=O)CC1 (centres undefined)	none
COc1ccc(N2CCN(C(=O)c3cc(N4C(=O)C5C6CCC(C6)C5C4=O)ccc3Cl)CC2)cc1 (centres undefined)	TDP1 cell noCPT inconclusive
COc1ccc(Cl)c(Cn2c(NCCN)nc3c2c(=O)n(C)c(=O)n3C)c1	TDP1 cell noCPT inconclusive, DT40 TDP1 CPT inconclusive (no result: uPA surface inh)
COc1ccc(Cl)c(Cn2c(NCc3ccco3)nc3c2c(=O)n(C)c(=O)n3C)c1	TDP1 cell noCPT 3.66µM, DT40 TDP1 CPT 4.61µM
Cn1c(=O)c2c(nc(NCc3ccco3)n2CC(O)COc2ccccc2)n(C)c1=O (centres undefined)	TDP1 cell noCPT 9.2µM, DT40 TDP1 CPT inconclusive
CCCn1c(NCc2ccco2)nc2c1c(=O)n(C)c(=O)n2C	TDP1 cell noCPT 13µM, DT40 TDP1 CPT inconclusive (no result: TDP1 inh)
COc1cccc(Cn2c(NCc3ccco3)nc3c2c(=O)n(C)c(=O)n3C)c1	TDP1 cell noCPT 1.46µM, DT40 TDP1 CPT 1.84µM
Cc1cc2nc(C)n(CCCNC(=O)Nc3cccc4ccccc34)c2cc1C	TDP1 cell noCPT 14.6µM, DT40 TDP1 CPT 23.1µM, TDP1 inh inconclusive
CCOc1ccc(NC(=O)NCCCn2c(C)nc3cc(C)c(C)cc32)cc1	TDP1 cell noCPT inconclusive, DT40 TDP1 CPT inconclusive
CCN(CC)c1ccc(C=O)c(OC)c1	none
CCc1cccc(NC(=O)Cc2nc(-c3ccc(OC)cc3)no2)c1	TDP1 cell noCPT inconclusive, DT40 TDP1 CPT inconclusive (no result: uPA surface inh)
COc1ccc(-n2cc(CNC(C)c3ccncn3)c(-c3cccc(F)c3)n2)cc1 (centres undefined)	TDP1 cell noCPT 25.9µM, DT40 TDP1 CPT inconclusive
CCC(COC)NCc1cn(-c2ccc(OC)cc2)nc1-c1cccc(F)c1 (centres undefined)	TDP1 cell noCPT 23.1µM, DT40 TDP1 CPT 16.4µM
CCOc1ccc(N2CC(C(=O)NCCc3c[nH]c4ccc(OC)cc34)CC2=O)cc1 (centres undefined)	none (no result: TDP1 inh)
C=CCNCc1cccn1-c1sc2c(c1C#N)CCCC2	TDP1 cell noCPT 20.6µM, DT40 TDP1 CPT 20.6µM
O=C(NCC(=O)N1CCN(C(=O)c2ccco2)CC1)c1ccc(Cl)cc1	none (no result: TDP1 inh, miR-21 reporter)
CCCn1c(SCc2nc(-c3cc(OC)ccc3OC)no2)nnc1-c1ccc(Cl)cc1	TDP1 cell noCPT 14.6µM, DT40 TDP1 CPT 13µM (no result: uPA surface inh)
CCCn1c(SCc2nc(-c3ccc(OC)c(OC)c3)no2)nnc1-c1ccccc1	TDP1 cell noCPT 18.4µM, DT40 TDP1 CPT inconclusive (no result: uPA surface inh)
CCCn1c(SCc2nc(-c3ccccc3C)no2)nnc1-c1ccc(Cl)cc1	TDP1 cell noCPT 16.4µM, DT40 TDP1 CPT 13µM (no result: uPA surface inh)
COc1ccc(-c2noc(CSc3nnc(C)n3-c3ccc(C)cc3)n2)cc1	TDP1 cell noCPT inconclusive, DT40 TDP1 CPT inconclusive (no result: uPA surface inh)
O=C(CNC(=O)C1CCCCC1)OCCOc1ccccc1	none (no result: uPA surface inh, miR-21 reporter)
CCN(CC(=O)Nc1c(F)cccc1F)C(=O)c1cc2c(cc1Cl)N1CCCCCC1=NS2(=O)=O	none (no result: miR-21 reporter)
Cc1ccc(NC(=O)C[n+]2cc(-c3ccc(C)cc3)n3c2CCC3)cc1	TDP1 cell noCPT 5.17µM, DT40 TDP1 CPT 4.11µM
Cc1ccc(-c2c[n+](CC(=O)Nc3ccc(C)cc3C)c3n2CCC3)cc1	TDP1 cell noCPT 14.6µM, DT40 TDP1 CPT inconclusive
O=C(N/C(=C\c1ccco1)C(=O)N1CCOCC1)c1ccc([N+](=O)[O-])cc1	none (no result: TDP1 inh)
CCN(CC)c1ccc(/C=N/NC(=O)c2nnn(-c3nonc3N)c2-c2ccc(C)cc2)cc1	TDP1 cell noCPT inconclusive, DT40 TDP1 CPT inconclusive
CCOc1nc(C)ccc1-c1noc(C)n1	none
Cc1ccc(S(=O)(=O)N2CCCCC2CCNC(=O)C(=O)NCc2ccccc2)cc1 (centres undefined)	TDP1 cell noCPT 2.91µM, DT40 TDP1 CPT 3.26µM, uPA surface inh 8.91µM (no result: TDP1 inh, miR-21 reporter)
Cc1ccc(C)c(S(=O)(=O)N2CCCCC2CCNC(=O)C(=O)NCc2ccco2)c1 (centres undefined)	TDP1 cell noCPT 8.2µM, DT40 TDP1 CPT 16.4µM (no result: miR-21 reporter)
Cc1ccc(C)c(S(=O)(=O)N2CCCC2CNC(=O)C(=O)NCc2ccco2)c1 (centres undefined)	TDP1 cell noCPT inconclusive, DT40 TDP1 CPT inconclusive (no result: miR-21 reporter)
COc1ccc(CNC(=O)C(=O)NCCC2CCCCN2S(=O)(=O)c2ccc(C)cc2)cc1 (centres undefined)	TDP1 cell noCPT 25.9µM, DT40 TDP1 CPT 16.4µM (no result: miR-21 reporter)
O=C(NN(C(=O)c1ccccc1)c1ccccc1)c1ccccc1	TDP1 inh 70.8µM
O=C(c1ccccc1)N(Nc1ccccc1)c1ccccc1	TDP1 cell noCPT inconclusive
CCOc1ccc(NC(=O)CSc2nncc(=O)[nH]2)cc1	DT40 TDP1 CPT inconclusive
COc1cccc2sc(Nc3nc(-c4ccncc4)cs3)nc12	TDP1 cell noCPT 2.91µM, DT40 TDP1 CPT 4.61µM
COc1cccc2sc(Nc3nc(-c4cc5ccccc5oc4=O)cs3)nc12	TDP1 cell noCPT 4.61µM, DT40 TDP1 CPT 4.61µM
Cc1cc(C)c(NC(=O)C(C)n2nc(-c3ccc(C)c(C)c3)ccc2=O)c(C)c1 (centres undefined)	TDP1 cell noCPT inconclusive, DT40 TDP1 CPT inconclusive (no result: uPA surface inh)
COc1ccc(NC(=O)C(C)n2nc(-c3ccc(C)c(C)c3)ccc2=O)cc1OC (centres undefined)	TDP1 cell noCPT 16.4µM, DT40 TDP1 CPT 23.1µM (no result: uPA surface inh)
CCc1ccccc1NC(=O)C(C)n1nc(-c2ccc(C)c(C)c2)ccc1=O (centres undefined)	TDP1 cell noCPT inconclusive, DT40 TDP1 CPT 23.1µM (no result: TDP1 inh, uPA surface inh)
